The values below come from patent publication US20020142945A1, “Immunomodulatory methods using carbohydrate antigens” (President and Fellows of Harvard College, priority 1998, published 2002).

For one assay, the system named is B220+ cells. The assay can be described thus: B7-1 and B7-2 expression on B220+ splenocytes (immunofluorescent staining, flow cytometry). The assay is classed as in vivo, mice. The settings on record: freshly isolated splenocytes, IP immunized mice. The method, then: (§1) In flat-bottom 24-well culture plates (Corning), suspensions of 2.5×10^6 cells per ml were cultured with ConA (2 μg/ml) or without restimulation at 37° C. in supplemented RPMI 1640 medium as described above. 24, 72 and 120 hrs later, the cell cultures were then centrifuged, and the culture supernatants were harvested and kept frozen (−80° C.) until assayed. Pelleted cells were resuspended then stained with mAbs coupled to FITC or PE for immunofluorescent staining. IL-2, IL-4, IL-5, IL-10 and IFN-γ levels in supernatants from ConA-stimulated or unstimulated splenocytes were measured by capture ELISA. In brief, Maxisorp microtitre plates (Nunc Laboratories Ltd., Denmark) were coated with 50 μl of capture Ab at 2.0 μg/ml (rat anti-mouse IL-5, IL-10 and IFN-γ from Pharmingen and rat anti-mouse IL-4 from Endogen, Mass.) in Carbonate-bicarbonate buffer by overnight incubation at 4° C. Wells were then washed with PBS-T four times and blocked by addition of 10% FCS in PBS (2 hours, 37° C.). 50 μl of culture supernatants and appropriate recombinant standards were then added to individual well in duplicate. For standard curves, recombinant IL-5 (0 to 5,000 pg/ml), IL-10 (0 to 25,000 pg/ml), IFN-γ (0 to 20,000 pg/ml) (Pharmingen, Calif.) and IL-4 (0 to 1,500 pg/ml) (Endogen, Mass.) were used in duplicate. Following overnight incubation at 4° C., the wells were washed and appropriate 50 μl/well biotinylated detection Ab at 1 μg/ml (rat anti-mouse IL-5, IL-10 or IFN-γ from Pharmingin and rat anti-mouse IL-4 from Endogen) were added. For the detection of bound biotinylated Ab, 50 μl of streptavidin-alkaline phosphatase conjugate ( 1/2000, Pharmingen) was added to each well for 45 minutes, then washed. Level of cytokine in the wells was visualized by addition of p-nitrophenyl phosphate (Sigma) in glycine buffer. Absorbance was measured at 405 nm using a UVMax automatic microplate reader.
Following in vitro culture without restimulation, splenocytes were resuspended and incubated on ice for 15 min with mAbs as follows: anti-CD45R/B220 (RA3-6B2), anti-B7-1 (16-10A 1), and anti-B7-2 (GL-1) or isotype-matched controls. All mAbs were either FITC- or PE-conjugated (Pharmingen). After washing with Hanks' balanced salt solution (Gibco) containing 0.05% sodium azide, flow cytometry analysis was performed by using a FACSCalibur flow cytometer and Cell Quest software (Becton Dickinson, CA). Dead cells were excluded from analysis on the basis of propidium iodide (Molecular Probes, OR) staining. Lymphocytes were gated according to the physical characteristics of forward and side scatter and at least 10,000 events were acquired.
A general note: A flow cytometer gives signals particle by particle.

Another assay has as its system splenocytes. Description: Cytokine production by cultured splenocytes of IP immunized mice (capture ELISA). The class given is in vivo. As to the method:
Multivalent LNnT or Lewis^γ were conjugated with HSA (LNnT-HSA and Le^y-HSA) by Accurate Chemical and Scientific Corporation (NY). In both neoglycoproteins, 13 molecules of sugar conjugated to 1 HSA molecule. As controls, HSA (Sigma Chemical Co., Mo.), HSA adsorbed to alum (Intergen Company, NY; HSA-alum), or Dulbecco's PBS (Gibco BRL, NY) were prepared for immunization. Groups of four to six mice were immunized intraperitoneally or subcutaneously with Ags (10 μg of HSA) or saline. First and second boosting immunization were performed in the same fashion 2 and 3 weeks later, respectively. Protein concentration was determined by bicinchoninic acid (BCA) assay (Pierce, Ill.).
as §1

Where [1] appears, read: in vitro stimulation ConA, 72 hrs.

For the substance “Human serum albumin [HSA, reference compound]”, the “percentage of the cells positive for both B7-2 and B220 molecules” value in the assay with B220+ cells turned out to be 0.59±0.05 percentage. Moreover, in the assay on B220+ cells (n=6), the “percentage of the cells positive for both B7-1 and B220 molecules” value is on record as 0.95±0.07 percentage. The “IL-5, IL-6, and IFN-γ production by splenocytes” value in the assay on splenocytes (IL-4 deficient mice, without restimulation) is recorded as “not detected”. The IFN-g with splenocytes (setting [1]) is 3,577 ± 510 pg/ml. In the assay with splenocytes (setting [1]), this substance gave an IL-4 of 31.81 ± 3.64 pg/mL. For the same substance, the IL-5 in the assay with splenocytes (setting [1]) is 78 ± 6 pg/mL; in the assay on splenocytes (in vitro stimulation none, 24 hrs) it was 43 ± 2 pg/mL; with splenocytes (in vitro stimulation none, 72 hrs) it was 42 ± 1 pg/mL; in the assay with splenocytes (in vitro stimulation none, 120 hrs), 45 ± 6 pg/mL.
